Anesthetic bind – candidate novel general anesthetic via apoferritin binding; apoferritin/1-aminoanthracene competitive binding, fluorescence; Potency, µM (doses to about 77.5 µM), without a hit: at the top dose activity change, negative = displacement, usual class: inhibitors; hit rate 0.074% among 350,000; further: potency means the concentration at half of the fitted maximal effect; on the % scale 0 is the no-effect control and ±100 the full control effect; nearly all actives have a fitted effect of over 20% in size
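Probe: 1-aminoanthracene (50% saturated, PBS). Protein: horse-spleen apoferritin, 10 uM. Incubation: 10 min, room temperature. Detection: 380 nm excitation, 535 nm emission. Analysis: normalized response, four-parameter Hill.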
TrxR1 substrate – substrates of rat thioredoxin reductase 1; O89049; purified TrxR1 substrate turnover, NADPH consumption readout; Potency, µM (titrated, usually from 114 µM), without a hit: top-dose activity change, negative = substrate turnover; hit rate 0.01% among 390,000; further: potency means the concentration at half of the fitted maximal effect; on the % scale 0 is the no-effect control and ±100 the full control effect; nearly all actives have a fitted effect of over 50% in size
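Rat TrxR1, dispensed at 90 nM, was prereduced with 400 uM NADPH (final) for 5 min at ~22 deg C, then incubated with compound 15 min before 400 uM selenite. A first-read NADPH fluorescence drop versus no-compound background flagged substrates.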
ClpP mod – qHTS Assay for Activators of ClpP; ATP-dependent Clp protease proteolytic subunit (Bacillus subtilis (strain 168)), P80244; purified B. subtilis ClpP, FRET peptide cleavage, 20 min; Potency, µM (series often up to 57.5 µM), for the others: top-dose activity change, negative = active; hit rate 1.9% among 340,000; AID 651965, 2013; active means well fitted falling curve with a large enough effect; inconclusive means small, poorly fitted or top-dose-only effect; inactive means no such curve, though single readings can be large or run the other way; further: potency means the concentration at half of the fitted maximal effect; the source files actives as falling curves though it sought activators and does not explain the sign; nearly all actives have a fitted effect of over 65% in size
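FRET quenching reversal measured ClpP activation: 10 microg/mL B. subtilis ClpP at pH 8 with the FRET-FV decapeptide, read at 430 nm after 320 nm excitation. The 20-min minus 0-min signal was scaled between DMSO/no-enzyme wells and ADEP (5.8 microM final).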
TrxR1 inh-1 – inhibitors of rat thioredoxin reductase 1; O89049; recombinant rTrxR1, NADPH fluorescence consumption, selenite substrate; Potency, µM (top dose mostly 114 µM), without a hit: at the highest dose activity change, negative = inhibition, most hits filed as inhibitors; hit rate 1% among 390,000; AID 588453; further: potency means the concentration at half of the fitted maximal effect; on the % scale 0 is the no-effect control and ±100 the full control effect; nearly all actives have a fitted effect of over 65% in size
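Rat TrxR1 (90 nM in the dispensed reagent) was pre-reduced with 400 uM NADPH for 5 min at room temperature, then incubated with compound for 15 min. After 400 uM selenite was added, NADPH fluorescence (Ex 340/Em 450 nm) was followed for 8 min.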
miR-21 reporter – miR-21 reporter, rising signal | AID 2288 | HeLa miR-21 FLuc reporter, luciferase, 48 h | 340,000 tested, under 10 active | Potency, µM (doses to about 38.3 µM), for inactives: at the top dose reporter change, positive = more light; active = well fitted rising curve with a large enough effect; inconclusive = small, poorly fitted or top-dose-only effect; inactive = no such curve, though single readings can be large or run the other way;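 note: % of control where 0% means no effect; miR-21 action dims this reporter so a rising signal means less miR-21 action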
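HeLa miR-21-FLuc reporter line, endogenous miR-21; 2000 cells/well in DMEM/10% FBS; compound titration up to ~40uM final, 48 h, 37 degree Celsius; luciferase detection reagent, 15 min lysis, CCD luminescence.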
TRb-SRC2 inh – disrupts human TRb binding to SRC2 peptide in AlphaScreen. AlphaScreen TRb LBD-SRC2 peptide binding, luminescence. shares compounds with TrxR1 inh-1. AID 2444. hit rate 50% among 30. Potency, µM; calls by dose curve
HepG2 tox – HepG2 cytotoxicity, 72 h ATP readout; hit rate 50% among 40; Potency, µM; HepG2 viability, ATP luminescence (CellTiter-Glo), 72 h; shares compounds with TrxR1 inh-1; calls by dose curve
AR SRC2 FP – AR-SRC2 (human) interaction inhibition, selectivity | AID 2448 | shares compounds with TrxR1 inh-1 | 25 tested, under 10 active | calls only | AR-LBD Tx-SRC2-3 fluorescence polarization, 3 h; call rule not given here
PPARg-DRIP2 inh – PPARg-DRIP2 (human) interaction inhibition, selectivity; shares compounds with TrxR1 inh-1; PPARg LBD / Texas Red DRIP-2 peptide, fluorescence polarization, 3 h; Potency, µM; 25 tested, under 10 active; AID 2449; calls by dose curve
VDR SRC2 FP – selectivity of TRb-SRC2 inhibitors: human vitamin D receptor-SRC2 inhibition; shares compounds with TrxR1 inh-1; VDR LBD/SRC2-3 peptide, fluorescence polarization, 3 h; Potency, µM; 25 tested, under 10 active; AID 2455; calls by dose curve
GR counterassay – counter-screen for TrxR1 inhibitors: human glutathione reductase inhibition; shares compounds with TrxR1 inh-1; purified GR, DTNB reduction absorbance 405 nm kinetic; activity change, negative = inhibition, % at 57.1 µM; 55 tested, under 10 active; AID 652020
TrxR1 inh-2 – rat TrxR1 inhibition, primary screen retest; recombinant TrxR1, NADPH fluorescence consumption, selenite substrate; shares compounds with TrxR1 inh-1; Potency, µM, most hits filed as inhibitors; hit rate 50% among 55; AID 652023
TrxR1 insulin MOA – TrxR1 inhibitors: insulin reduction mechanism-of-action test | TrxR1 Trx-coupled insulin reduction, NADPH absorbance 340 nm | hit rate 20% among 55 | Potency, µM | shares compounds with TrxR1 inh-1 | AID 652037;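 active means compounds with a measured potency under 100 micromolar; inconclusive means filed, but no rule given; inactive means potency at or above that, or unmeasurable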
TrxR1 inh-3 – blocks rat TrxR1 reduction of DTNB; shares compounds with TrxR1 inh-1; purified TrxR1, DTNB reduction, A412; Potency, µM; hit rate 90% among 55; AID 652256;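 active means a half-inhibiting concentration could be measured and was below 100 µM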
* hit, by the source's call; i = inactive; ? = inconclusive; . = not tested or not shown. Most compounds without a hit are left out; they make up all but 2.5% or so of the library. Unless noted, the call rests on the fitted dose curve; in most records, active means well fitted curve in the direction sought with a large enough effect; inconclusive means small, poorly fitted or top-dose-only effect, or another doubt; inactive means no such curve, though single readings can be large; an effect the other way counts as inactive or inconclusive.

SMILES	Anesthetic bind	TrxR1 substrate	ClpP mod	TrxR1 inh-1	miR-21 reporter	others
O=C(c1ccc(-c2ccc([N+](=O)[O-])cc2)o1)N1CCCCCCC1	.	-11%	-6%	5µM*	.	GR counterassay=-19;TrxR1 inh-2=4.7*;TrxR1 insulin MOA=i;TrxR1 inh-3=1µM*
O=C(c1ccc(-c2ccc([N+](=O)[O-])cc2)o1)N1CCCC(C(F)(F)F)C1 (stereo not drawn)	.	-12%	0%	?	.
CCC(C)(C)n1nnnc1C(c1ccc(O)c(OC)c1)N1CCc2ccccc2C1 (stereo not drawn)	?	7%	0%	0.079µM*	-1%	GR counterassay=8;TrxR1 inh-2=0.34*;TrxR1 insulin MOA=i;TrxR1 inh-3=0.011µM*
CCOc1ccc(NC(=O)CC2C(=O)N(c3ccccc3)C(=O)N2C2CCCCC2)cc1 (stereo not drawn)	-10%	-10%	0%	0%	2%
O=C(COC(=O)c1cc(Cl)ccc1[N+](=O)[O-])NC1CC1	.	4%	-4%	13%	.
O=C(COC(=O)c1ccc(F)c([N+](=O)[O-])c1)NC1C2CC3CC(C2)CC1C3 (stereo not drawn)	.	.	.	.	.	TRb-SRC2 inh=8.7µM*;HepG2 tox=?;AR SRC2 FP=i;PPARg-DRIP2 inh=i;VDR SRC2 FP=i
O=C(COC(=O)c1cccc([N+](=O)[O-])c1Cl)NC1C2CC3CC(C2)CC1C3 (stereo not drawn)	.	.	.	.	.	TRb-SRC2 inh=44µM*;HepG2 tox=i;AR SRC2 FP=i;PPARg-DRIP2 inh=i;VDR SRC2 FP=i
O=C(COC(=O)c1ccc(Cl)c([N+](=O)[O-])c1)NC1CCCC1	-9%	5%	1%	6%	4%
Nc1ccc(C(=O)OCC(=O)NC2CC2)cc1[N+](=O)[O-]	-8%	0%	1%	17%	-3%
O=C(COC(=O)c1ccc(Cl)c([N+](=O)[O-])c1)NC1C2CC3CC(C2)CC1C3 (stereo not drawn)	.	.	.	.	.	TRb-SRC2 inh=i;HepG2 tox=i;AR SRC2 FP=i;PPARg-DRIP2 inh=i;VDR SRC2 FP=i
CC(=O)c1ccc(NC(=O)C(Cc2ccccc2)NS(=O)(=O)c2ccc3c(c2)CCC(=O)N3)cc1 (stereo not drawn)	-10%	0%	-9%	19%	3%
Cc1ccc(C2C(C(=O)c3cc4ccccc4o3)=C(O)C(=O)N2CCN2CCOCC2)cc1 (stereo not drawn)	-21%	-6%	-6%	45µM*	-10%	GR counterassay=?;TrxR1 inh-2=?;TrxR1 insulin MOA=i;TrxR1 inh-3=0.33µM*
O=C(C1=C(O)C(=O)N(CCCN2CCOCC2)C1c1ccncc1)c1cc2ccccc2o1 (stereo not drawn)	-3%	.	.	.	-6%

Compounds listed so far that contain nitrogen in an aromatic ring, in the order listed:
SMILES	Anesthetic bind	TrxR1 substrate	ClpP mod	TrxR1 inh-1	miR-21 reporter	others
CCC(C)(C)n1nnnc1C(c1ccc(O)c(OC)c1)N1CCc2ccccc2C1 (stereo not drawn)	?	7%	0%	0.079µM*	-1%	GR counterassay=8;TrxR1 inh-2=0.34*;TrxR1 insulin MOA=i;TrxR1 inh-3=0.011µM*
O=C(C1=C(O)C(=O)N(CCCN2CCOCC2)C1c1ccncc1)c1cc2ccccc2o1 (stereo not drawn)	-3%	.	.	.	-6%

Assay outcomes deposited in PubChem by National Center for Advancing Translational Sciences (NCATS).
